Experimental data reported in PubChem BioAssay AID1463 (National Center for Advancing Translational Sciences (NCATS), 2008).
The list shows a part of the results, in another mix than the full data. Inconclusive results are not listed. Some salts or complexes appear as unconnected parts, following the source record. Calls of active or inactive are those of the source. Calls follow the shape of the dose curve; as a rule, active = well fitted curve in the direction sought with a large enough effect; inconclusive = small, poorly fitted or top-dose-only effect; inactive = flat fitted curve, though single readings scatter.
% is scaled to controls: 0 for no effect and ±100 for the full control effect.

Assay: Counterscreen qHTS for Inhibitors of Tau Fibril Formation, Fluorescence Polarization; also: nearly all actives have a fitted effect of over 55% in size
Conditions: tau K18 P301L (four-repeat tau fragment) Alexa594 fluorescence, heparin fibrillization; at 57.7 µM (top of the series)
For CCOc1ccc(C)cc1CN(CCCl)CCCl, the activity change, negative = decrease was inactive: -9.01%. With O=C(NCC1(N2CCOCC2)CCCCC1)c1ccc(Cl)cc1 the activity change, negative = decrease was inactive: -2.1%. For COc1ccc(NC2CCN(CCc3ccccc3)CC2)c(OC)c1, the activity change, negative = decrease was inactive: -14.4%. In the case of COc1ccccc1C(=O)NCC1(N2CCOCC2)CCCCC1, the activity change, negative = decrease is reported as inactive: -7.14%. With Cc1ccc(OCC(C)C)c(CN(CCCl)CCCl)c1 the activity change, negative = decrease was inactive: 2.63%. For COc1ccc(C(=O)NCC2(N3CCCCC3)CCCCC2)c(OC)c1OC, the activity change, negative = decrease was inactive: 0.927%. For O=C(NCC1(N2CCOCC2)CCCCC1)c1cc2ccccc2o1, the activity change, negative = decrease was inactive: -10.2%. In the case of CCOC(=O)N1CCC(Nc2ccc(OC)cc2)CC1, the activity change, negative = decrease is reported as inactive: -4.06%. For O=C(OC1CN2CCC1CC2)C1c2ccccc2Oc2ccccc21 (configuration not stated), the activity change, negative = decrease was inactive: 1.75%. With N#CC1(Nc2ccccc2)CCN(Cc2ccccc2)CC1 the activity change, negative = decrease was inactive: -14.8%. In the case of COc1ccc(CN(CCCl)CCCl)cc1Cl, the activity change, negative = decrease is reported as inactive: -8.81%. With CN(C)c1cccc(C(=O)NCC2(N3CCCCC3)CCCCC2)c1 the activity change, negative = decrease was inactive: -1.13%. With CC(C)c1ccc(NC2CCN(C(=O)OC(C)(C)C)CC2)cc1 the activity change, negative = decrease was inactive: -5.99%. In the case of COc1ccc2c(c1O)-c1c(O)c(OC)cc3c1[C@H](C2)[N+](C)(C)CC3.O=[N+]([O-])c1cc([N+](=O)[O-])c([O-])c([N+](=O)[O-])c1[O-], the activity change, negative = decrease is reported as inactive: -16.5%. With O=C(OC1CN2CCC1CC2)c1ccc([N+](=O)[O-])cc1 (configuration not stated) the activity change, negative = decrease was inactive: -2.83%. With CCCCOc1ccccc1C(=O)NCC1(N2CCOCC2)CCCCC1 the activity change, negative = decrease was inactive: -9.98%. For O=C(NCC1(N2CCOCC2)CCCCC1)c1ccccc1Br, the activity change, negative = decrease was inactive: 9.31%. With CCOc1ccc(C(=O)NCC2(N3CCOCC3)CCCCC2)cc1 the activity change, negative = decrease was inactive: -0.596%. For O=C(NCC1(N2CCCCC2)CCCCC1)c1cccc([N+](=O)[O-])c1, the activity change, negative = decrease was inactive: 1.87%. For N#CC1(Nc2ccccc2)CCN(CCc2ccccc2)CC1, the activity change, negative = decrease was inactive: 0.0045%. In the case of CCCOc1cccc(C(=O)NCC2(N3CCOCC3)CCCCC2)c1, the activity change, negative = decrease is reported as inactive: -3.3%. For O=[N+]([O-])c1cc([N+](=O)[O-])c(NCC2CCS(=O)(=O)C2)c([N+](=O)[O-])c1 (configuration not stated), the activity change, negative = decrease was inactive: -3.5%. For COc1ccc(NC2CCN(C(=O)OC(C)(C)C)CC2)cc1, the activity change, negative = decrease was inactive: -9.92%. In the case of CN1CCN(CCOC(=O)C(O)(c2ccccc2)c2ccccc2)CC1, the activity change, negative = decrease is reported as inactive: 0.131%. With O=C(NCC1(N2CCOCC2)CCCCC1)c1cc(=O)[nH]c2ccccc12 the activity change, negative = decrease was inactive: -11%. For O=C(NCC1(N2CCOCC2)CCCCC1)c1ccc([N+](=O)[O-])cc1, the activity change, negative = decrease was inactive: -5.88%. For O=C(NCC1(N2CCOCC2)CCCCC1)c1ccccc1[N+](=O)[O-], the activity change, negative = decrease was inactive: -5.8%. In the case of N#Cc1ccc(C(=O)NCC2(N3CCCCC3)CCCCC2)cc1, the activity change, negative = decrease is reported as inactive: 2.26%. With CCOC(=O)C(CC)C1=NC(C)(C)Cc2ccccc21.O=[N+]([O-])c1cc([N+](=O)[O-])c(O)c([N+](=O)[O-])c1 (configuration not stated) the activity change, negative = decrease was inactive: -6.01%. For c1ccc(CN2CCC(Nc3ccccc3)CC2)cc1, the activity change, negative = decrease was inactive: -6.01%. In the case of O=C(NCC1(N2CCOCC2)CCCCC1)c1ccccc1, the activity change, negative = decrease is reported as inactive: 2.05%. For COc1ccc(C(=O)NCC2(N3CCOCC3)CCCCC2)cc1OC, the activity change, negative = decrease was inactive: -0.616%. In the case of N/C(=N\O)c1c(N)no[n+]1[O-], the activity change, negative = decrease is reported as inactive: 3.36%. In the case of O=C(OC1CN2CCC1CC2)C1c2ccccc2C=Cc2ccccc21 (configuration not stated), the activity change, negative = decrease is reported as inactive: 2.89%. With O=C(O)c1cccc(Nc2c([N+](=O)[O-])cc([N+](=O)[O-])cc2[N+](=O)[O-])c1 the activity change, negative = decrease was inactive: -6.36%. In the case of CCOc1ncccc1C(=O)NCC1(N2CCOCC2)CCCCC1, the activity change, negative = decrease is reported as inactive: 1.69%. With CC(C)(C)OC(=O)N1CCC(Nc2ccccc2)CC1 the activity change, negative = decrease was inactive: -7.99%. With CCC(CO)(C(=O)OC1CN2CCC1CC2)c1ccccc1 (configuration not stated) the activity change, negative = decrease was inactive: 3.55%. With COc1cc(OC)cc(C(=O)NCC2(N3CCOCC3)CCCCC2)c1 the activity change, negative = decrease was inactive: 7.63%. In the case of COc1cc(C(=O)NCC2(N3CCOCC3)CCCCC2)cc(OC)c1OC, the activity change, negative = decrease is reported as inactive: 3.64%. For CCCOc1ccc(C)cc1CN(CCCl)CCCl, the activity change, negative = decrease was inactive: -9.42%. With CN(C)C1(CNC(=O)c2ccc(C(C)(C)C)cc2)CCCCC1 the activity change, negative = decrease was inactive: -1.67%. In the case of Fc1ccccc1NC1CCN(Cc2ccccc2)CC1, the activity change, negative = decrease is reported as inactive: 8.13%. With CCN1CCC(Nc2cccc(F)c2)CC1 the activity change, negative = decrease was inactive: -12.5%. For CC(C)(C)c1ccc(C(=O)NCC2(N3CCOCC3)CCCCC2)cc1, the activity change, negative = decrease was inactive: -8.66%. With CN(C)c1ccc(C(=O)NCC2(N3CCCCC3)CCCCC2)cc1 the activity change, negative = decrease was inactive: 7.53%. For Cc1ccccc1C(=O)NCC1(N(C)C)CCCCC1, the activity change, negative = decrease was inactive: 2.17%.
